# Membrane permeability of cyclic peptides

PAMPA measures passive passage through an artificial lipid membrane.
Permeability is given as log10 of P in cm/s; higher (less negative) is more permeable.

| SMILES | PAMPA (log10 cm/s) |
|---|---|
| CC(C)C[C@@H]1C(=O)N[C@@H](Cc2ccccc2)C(=O)N2CCC[C@H]2C(=O)N(C)[C@H](C)C(=O)N(Cc2ccccc2)CC(=O)N[C@H](CC(C)C)C(=O)N2CCC[C@H]2C(=O)N1C | -5.40 |
| CCCN1CC(=O)N[C@@H](CC(C)C)C(=O)N(Cc2ccccc2)CC(=O)N2CCC[C@H]2C(=O)N[C@@H](CC(C)C)C(=O)N[C@@H](Cc2ccccc2)C(=O)N2CCC[C@@H]2C1=O | -5.77 |
| CC(C)C[C@@H]1NC(=O)[C@H](C)N(C)C(=O)[C@H]2CCCN2C(=O)[C@H](Cc2ccccc2)NC(=O)[C@@H](CC(C)C)NC(=O)[C@@H]2CCCN2C(=O)[C@H](CC(C)C)N(C)C1=O | -5.91 |
| CC(C)C[C@@H]1NC(=O)[C@@H](C)NC(=O)[C@H](Cc2ccccc2)NC(=O)CN(Cc2ccccc2)C(=O)[C@H]2CCCN2C(=O)[C@H](CC(C)C)N(C)C1=O | -5.44 |
| CC(C)C[C@@H]1C(=O)N(C)[C@H](CC(C)C)C(=O)N2CCC[C@H]2C(=O)N(Cc2ccccc2)CC(=O)N[C@@H](Cc2ccccc2)C(=O)N[C@@H](C)C(=O)N1C | -5.35 |
| CC(C)C[C@@H]1C(=O)N2CCC[C@H]2C(=O)N[C@H](CC(C)C)C(=O)N[C@@H](Cc2ccccc2)C(=O)N[C@@H](Cc2ccccc2)CC(=O)N[C@H](CC(C)C)C(=O)N1C | -5.26 |
| CC(C)C[C@@H]1NC(=O)[C@H](C)N(C)C(=O)[C@H]2CCCN2C(=O)[C@H](Cc2ccccc2)NC(=O)[C@@H](CC(C)C)N(C)C(=O)[C@H]2CCCN2C(=O)[C@@H](CC(C)C)NC1=O | -5.58 |
| CC(C)C[C@@H]1C(=O)N[C@@H](Cc2ccccc2)CC(=O)N2CCC[C@@H]2C(=O)N(C)[C@H](CC(C)C)C(=O)N[C@@H](Cc2ccccc2)C(=O)N2CCC[C@H]2C(=O)N(C)[C@H](C)C(=O)N1C | -5.56 |
| CC(C)C[C@@H]1NC(=O)C[C@H](Cc2ccccc2)NC(=O)[C@@H]2CCCN2C(=O)[C@H](Cc2ccccc2)NC(=O)[C@H](CC(C)C)N(C)C(=O)[C@@H]2CCCN2C(=O)[C@@H](CC(C)C)N(C)C1=O | -5.17 |
| CC(C)C[C@@H]1NC(=O)[C@H](CC(C)C)N(C)C(=O)[C@@H](C)NC(=O)[C@H]2CCCN2C(=O)[C@H](Cc2ccccc2)NC(=O)[C@H](CC(C)C)N(C)C(=O)[C@@H]2CCCN2C1=O | -5.72 |
| CC(C)C[C@H]1NC(=O)CN(Cc2ccccc2)C(=O)[C@@H](C)N(C)C(=O)[C@@H]2CCCN2C(=O)[C@H](Cc2ccccc2)NC(=O)CN(Cc2ccccc2)C(=O)[C@@H]2CCCN2C1=O | -5.68 |
| CC(C)C[C@@H]1C(=O)N(C)[C@@H](CC(C)C)C(=O)N2CCC[C@H]2C(=O)N(C)[C@@H](CC(C)C)C(=O)N[C@@H](Cc2ccccc2)C(=O)N2CCC[C@H]2C(=O)N[C@@H](C)C(=O)N1C | -5.51 |

A selection of 2 entries from above:

| SMILES | PAMPA (log10 cm/s) |
|---|---|
| CC(C)C[C@@H]1C(=O)N2CCC[C@H]2C(=O)N[C@H](CC(C)C)C(=O)N[C@@H](Cc2ccccc2)C(=O)N[C@@H](Cc2ccccc2)CC(=O)N[C@H](CC(C)C)C(=O)N1C | -5.26 |
| CC(C)C[C@@H]1C(=O)N[C@@H](Cc2ccccc2)C(=O)N2CCC[C@H]2C(=O)N(C)[C@H](C)C(=O)N(Cc2ccccc2)CC(=O)N[C@H](CC(C)C)C(=O)N2CCC[C@H]2C(=O)N1C | -5.40 |

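The data file gives no further conditions (lipid, pH, time, direction or concentration), and values from different papers need not be comparable. The list need not hold all peptides of the study. Entries at the database's floor value (log10 P of -10) are not listed.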

Values of Townsend et al. 2020, doi:10.26434/chemrxiv.13335941.v1, as listed in CycPeptMPDB.